The values that follow come from PMC5471521, “Novel selective β1-adrenoceptor antagonists for concomitant cardiovascular and respiratory disease” (The FASEB Journal, 2017).

Amino acid sequences for entries named in this document (tags omitted).
UniProt P08588, whole entry: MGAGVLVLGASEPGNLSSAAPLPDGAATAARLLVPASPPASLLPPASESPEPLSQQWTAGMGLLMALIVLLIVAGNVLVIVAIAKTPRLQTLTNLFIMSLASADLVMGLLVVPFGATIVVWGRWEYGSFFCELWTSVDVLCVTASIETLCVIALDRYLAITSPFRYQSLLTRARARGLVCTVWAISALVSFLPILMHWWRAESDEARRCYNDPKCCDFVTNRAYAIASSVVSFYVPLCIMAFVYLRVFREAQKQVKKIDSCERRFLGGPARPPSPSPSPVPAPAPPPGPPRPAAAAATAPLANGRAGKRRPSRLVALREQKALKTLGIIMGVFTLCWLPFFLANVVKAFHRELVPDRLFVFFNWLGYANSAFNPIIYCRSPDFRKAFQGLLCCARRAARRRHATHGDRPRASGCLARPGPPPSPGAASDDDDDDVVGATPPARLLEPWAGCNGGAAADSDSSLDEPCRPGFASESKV

The experiment has as its target human β1-AR (Homo sapiens, UniProt P08588). Description: 3H-CGP12177 whole-cell binding in CHO-β1 cells. As to conditions: mean ± SEM.

`O=C1NCc2cc(OCCNC[C@H](O)COc3ccc4c(c3)OC[C@@H](COCC3CC3)O4)ccc21` [NDD-825]: the “Human β1-AR Log Kd” value was −8.17 ± 0.03.
Next, `NC(=O)c1ccc(OCCNC[C@H](O)COc2ccc3c(c2)OC[C@@H](COCC2CC2)O3)cc1` [NDD-713]: −7.70 ± 0.04.
